The experiment concerns the target T1, Cyclin-Dependent Kinase (CDK) 9 (Homo sapiens, UniProt P50750).
T1 construct: gene CDK9
Put plainly: in vitro radiometric kinase assay (Merck Millipore Kinase Profiling Service). It counts as biochemical.

The chains behind the UniProt entries cited, without tags or fusion partners.
UniProt P50750, whole entry: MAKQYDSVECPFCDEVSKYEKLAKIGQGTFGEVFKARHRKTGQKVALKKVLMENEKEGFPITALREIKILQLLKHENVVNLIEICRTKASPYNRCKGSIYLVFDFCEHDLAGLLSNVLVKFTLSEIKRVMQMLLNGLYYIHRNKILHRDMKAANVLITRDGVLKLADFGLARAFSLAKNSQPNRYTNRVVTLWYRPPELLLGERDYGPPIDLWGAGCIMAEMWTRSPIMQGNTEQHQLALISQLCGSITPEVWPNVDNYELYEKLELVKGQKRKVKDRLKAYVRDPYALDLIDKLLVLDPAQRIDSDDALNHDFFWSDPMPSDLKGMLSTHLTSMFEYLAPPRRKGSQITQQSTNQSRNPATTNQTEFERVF

Structures can show the parent of a compound that is named as a salt.

The text below walks through data of publication PMC4697837, “Bay 61-3606 Sensitizes TRAIL-Induced Apoptosis by Downregulating Mcl-1 in Breast Cancer Cells” (PLoS ONE, 2015).

In the case of `COc1ccc(-c2cc3nccn3c(Nc3ncccc3C(N)=O)n2)cc1OC` [Bay 61–3606, 2-[7-(3,4-dimethoxyphenyl)-imidazo[1,2-c]pyrimidin-5-ylamino]nicotinamide dihydrochloride], the IC50 – broadly, the concentration that inhibits the measured activity by half – is 37 nM.
